Read-outs that look alike come from different tables or passages of the source.
What was measured:
human hemoglobin (human) [1] = target: human hemoglobin (human) (UniProt P69905); assay: cell-based or functional assay
human hemoglobin (human) [2] = target: human hemoglobin (human) (UniProt P69905); assay: extrapolated end point of the titration of 921 pmol/mL Hb (straight-line fit of Table 6A)
human hemoglobin (human) [3] = target: human hemoglobin (human) (UniProt P69905); assay: OC-Hemodia Auto III immunoassay, Hb 6.2 pmol/mL, Hpt 6.2 pmol/mL (1 Unit), no stool, initial value
human hemoglobin (human) [4] = target: human hemoglobin (human) (UniProt P69905); assay: OC-Hemodia Auto III immunoassay, Hb 6.2 pmol/mL, Hpt 12.4 pmol/mL (2 Unit), no stool, initial value
human hemoglobin (human) [5] = target: human hemoglobin (human) (UniProt P69905); assay: OC-Hemodia Auto III immunoassay, Hb 6.2 pmol/mL, Hpt 3.1 pmol/mL (0.5 Unit), no stool, initial value
human hemoglobin (human) [6] = target: human hemoglobin (human) (UniProt P69905); assay: OC-Hemodia Auto III immunoassay, Hb 9.3 pmol/mL, Hpt 9.3 pmol/mL (1 Unit), 0.5% feces, initial value
human hemoglobin (human) [7] = target: human hemoglobin (human) (UniProt P69905); assay: OC-Hemodia Auto III immunoassay, Hb 6.2 pmol/mL, Hpt 1.55 pmol/mL (0.25 Unit), no stool, initial value
human hemoglobin (human) [8] = target: human hemoglobin (human) (UniProt P69905); assay: OC-Hemodia Auto III immunoassay, Hb 9.3 pmol/mL, Hpt 4.65 pmol/mL (0.5 Unit), 0.5% feces, initial value
human hemoglobin (human) [9] = target: human hemoglobin (human) (UniProt P69905); assay: OC-Hemodia Auto III immunoassay, Hb 6.2 pmol/mL, Hpt 0.775 pmol/mL (0.125 Unit), no stool, initial value
human hemoglobin (human) [10] = target: human hemoglobin (human) (UniProt P69905); assay: OC-Hemodia Auto III immunoassay, Hb 9.3 pmol/mL, Hpt 2.325 pmol/mL (0.25 Unit), 0.5% feces, initial value
human hemoglobin (human) [11] = target: human hemoglobin (human) (UniProt P69905); assay: 59.4 µg/mL (921 pmol/mL) Hb + Hpt original solution at 0.125 % (vol/vol); free Hb by latex reagent No.16 + No.11
human hemoglobin (human) [12] = target: human hemoglobin (human) (UniProt P69905); assay: 59.4 µg/mL (921 pmol/mL) Hb + Hpt original solution at 0.250 % (vol/vol); free Hb by latex reagent No.16 + No.11
human hemoglobin (human) [13] = target: human hemoglobin (human) (UniProt P69905); assay: 59.4 µg/mL (921 pmol/mL) Hb + Hpt original solution at 0.500 % (vol/vol); free Hb by latex reagent No.16 + No.11
human hemoglobin (human) [14] = target: human hemoglobin (human) (UniProt P69905); assay: 59.4 µg/mL (921 pmol/mL) Hb + Hpt original solution at 1.000 % (vol/vol); free Hb by latex reagent No.16 + No.11
human hemoglobin (human) [15] = target: human hemoglobin (human) (UniProt P69905); assay: 59.4 µg/mL (921 pmol/mL) Hb + Hpt original solution at 2.000 % (vol/vol); free Hb by latex reagent No.16 + No.11
human hemoglobin (human) [16] = target: human hemoglobin (human) (UniProt P69905); assay: cell-based or functional assay; remark: listed apart in the source
human hemoglobin (human) [17] = target: human hemoglobin (human) (UniProt P69905); assay: OC-Hemodia Auto III immunoassay, Hb 6.2 pmol/mL, Hpt 6.2 pmol/mL (1 Unit), no stool, initial value; remark: listed apart in the source
human hemoglobin (human) [18] = target: human hemoglobin (human) (UniProt P69905); assay: OC-Hemodia Auto III immunoassay, Hb 6.2 pmol/mL, Hpt 3.1 pmol/mL (0.5 Unit), no stool, initial value; remark: listed apart in the source
human hemoglobin (human) [19] = target: human hemoglobin (human) (UniProt P69905); assay: OC-Hemodia Auto III immunoassay, Hb 9.3 pmol/mL, Hpt 9.3 pmol/mL (1 Unit), 0.5% feces, initial value; remark: listed apart in the source
human hemoglobin (human) [20] = target: human hemoglobin (human) (UniProt P69905); assay: OC-Hemodia Auto III immunoassay, Hb 6.2 pmol/mL, Hpt 1.55 pmol/mL (0.25 Unit), no stool, initial value; remark: listed apart in the source
human hemoglobin (human) [21] = target: human hemoglobin (human) (UniProt P69905); assay: OC-Hemodia Auto III immunoassay, Hb 9.3 pmol/mL, Hpt 4.65 pmol/mL (0.5 Unit), 0.5% feces, initial value; remark: listed apart in the source
human hemoglobin (human) [22] = target: human hemoglobin (human) (UniProt P69905); assay: OC-Hemodia Auto III immunoassay, Hb 6.2 pmol/mL, Hpt 0.775 pmol/mL (0.125 Unit), no stool, initial value; remark: listed apart in the source
human hemoglobin (human) [23] = target: human hemoglobin (human) (UniProt P69905); assay: OC-Hemodia Auto III immunoassay, Hb 9.3 pmol/mL, Hpt 2.325 pmol/mL (0.25 Unit), 0.5% feces, initial value; remark: listed apart in the source

Amino acid sequences for entries named in this document (tags omitted). Residues count along the entry.
UniProt P69905, 2-142, chain 1 of 2: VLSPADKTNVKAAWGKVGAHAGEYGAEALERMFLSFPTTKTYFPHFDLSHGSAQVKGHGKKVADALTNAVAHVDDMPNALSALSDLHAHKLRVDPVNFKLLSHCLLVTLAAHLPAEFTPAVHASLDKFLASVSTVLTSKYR

Molecule: Human Hpt (type 1-1), without enzyme treatment (from UniProt P00738 19-406)
- Residual Hb ratio (%), 37°C 7 days, Hpt 0.775 pmol/mL (0.125 Unit), no stool (human hemoglobin (human) [1]): 45%
- Residual Hb ratio (%), 37°C 7 days, Hpt 1.55 pmol/mL (0.25 Unit), no stool (human hemoglobin (human) [1]): 50%
- Residual Hb ratio (%), 37°C 7 days, Hpt 2.325 pmol/mL (0.25 Unit), 0.5% feces (human hemoglobin (human) [1]): 23%
- Residual Hb ratio (%), 37°C 7 days, Hpt 3.1 pmol/mL (0.5 Unit), no stool (human hemoglobin (human) [1]): 57%
- Residual Hb ratio (%), 37°C 7 days, Hpt 4.65 pmol/mL (0.5 Unit), 0.5% feces (human hemoglobin (human) [1]): 44%
- Residual Hb ratio (%), 37°C 7 days, Hpt 6.2 pmol/mL (1 Unit), no stool (human hemoglobin (human) [1]): 85%
- Residual Hb ratio (%), 37°C 7 days, Hpt 9.3 pmol/mL (1 Unit), 0.5% feces (human hemoglobin (human) [1]): 97%
- Residual Hb ratio (%), 37°C 7 days, Hpt 12.4 pmol/mL (2 Unit), no stool (human hemoglobin (human) [1]): 98%
- Residual Hb ratio (%), 37°C 14 days, Hpt 0.775 pmol/mL (0.125 Unit), no stool (human hemoglobin (human) [1]): 22%
- Residual Hb ratio (%), 37°C 14 days, Hpt 1.55 pmol/mL (0.25 Unit), no stool (human hemoglobin (human) [1]): 30%
- Residual Hb ratio (%), 37°C 14 days, Hpt 2.325 pmol/mL (0.25 Unit), 0.5% feces (human hemoglobin (human) [1]): 21%
- Residual Hb ratio (%), 37°C 14 days, Hpt 3.1 pmol/mL (0.5 Unit), no stool (human hemoglobin (human) [1]): 44%
- Residual Hb ratio (%), 37°C 14 days, Hpt 4.65 pmol/mL (0.5 Unit), 0.5% feces (human hemoglobin (human) [1]): 41%
- Residual Hb ratio (%), 37°C 14 days, Hpt 6.2 pmol/mL (1 Unit), no stool (human hemoglobin (human) [1]): 87%
- Residual Hb ratio (%), 37°C 14 days, Hpt 9.3 pmol/mL (1 Unit), 0.5% feces (human hemoglobin (human) [1]): 96%
- Residual Hb ratio (%), 37°C 14 days, Hpt 12.4 pmol/mL (2 Unit), no stool (human hemoglobin (human) [1]): 100%
- residual Hb ratio, 1 Unit of Hpt, 37°C 7 days, no stool (human hemoglobin (human) [1]): > 70%
- Amount of Hpt original solution when free-Hb concentration became 0 (human hemoglobin (human) [2]): 4.01 % (vol/vol)
- Ratio to no Hpt addition (%) (human hemoglobin (human) [3]): 72%
- Ratio to no Hpt addition (%) (human hemoglobin (human) [4]): 39%
- Ratio to no Hpt addition (%) (human hemoglobin (human) [5]): 85%
- Ratio to no Hpt addition (%) (human hemoglobin (human) [6]): 75%
- Ratio to no Hpt addition (%) (human hemoglobin (human) [7]): 91%
- Ratio to no Hpt addition (%) (human hemoglobin (human) [8]): 88%
- Ratio to no Hpt addition (%) (human hemoglobin (human) [9]): 94%
- Ratio to no Hpt addition (%) (human hemoglobin (human) [10]): 95%
- free-Hb concentration remaining (human hemoglobin (human) [11]): 57.1 µg/mL
- free-Hb concentration remaining (human hemoglobin (human) [12]): 55.9 µg/mL
- free-Hb concentration remaining (human hemoglobin (human) [13]): 50.8 µg/mL
- free-Hb concentration remaining (human hemoglobin (human) [14]): 43.7 µg/mL
- free-Hb concentration remaining (human hemoglobin (human) [15]): 29.8 µg/mL

B1: Porcine Hpt (without enzyme treatment) (protein)
chain: AETGNEATDATDDSCPKPPEIPKGYVEHMVRYHCQTYYKLRTAGDGVYTLDSNKQWTNKVTGEKLPECEAVCGKPKNPVDQVQRIMGGSLDAKGSFPWQAKMISHHNLTSGATLINEQWLLTTAKNLRLGHKNDTKAKDIAPTLRLYVGKKQEVEIEKVIFHPDNSTVDIGLIKLKQKVPVNERVMPICLPSKDYVNVGLVGYVSGWGRNANLNFTEHLKYVMLPVADQEKCVQYYEGSTVPEKKTPKSPVGVQPILNEHTFCAGLSKYQEDTCYGDAGSAFAVHDKDDDTWYAAGILSFDKSCRTAEYGVYVRVTSILDWIQTTIADN
modifications: natural N-linked glycans on Asn 125, 151, 183, 232 (SEQ ID NO: 4)
- Residual Hb ratio (%), 37°C 7 days, Hpt 0.775 pmol/mL (0.125 Unit), no stool (human hemoglobin (human) [16]): 40%
- Residual Hb ratio (%), 37°C 7 days, Hpt 1.55 pmol/mL (0.25 Unit), no stool (human hemoglobin (human) [16]): 41%
- Residual Hb ratio (%), 37°C 7 days, Hpt 2.325 pmol/mL (0.25 Unit), 0.5% feces (human hemoglobin (human) [16]): 19%
- Residual Hb ratio (%), 37°C 7 days, Hpt 3.1 pmol/mL (0.5 Unit), no stool (human hemoglobin (human) [16]): 49%
- Residual Hb ratio (%), 37°C 7 days, Hpt 4.65 pmol/mL (0.5 Unit), 0.5% feces (human hemoglobin (human) [16]): 34%
- Residual Hb ratio (%), 37°C 7 days, Hpt 6.2 pmol/mL (1 Unit), no stool (human hemoglobin (human) [16]): 79%
- Residual Hb ratio (%), 37°C 7 days, Hpt 9.3 pmol/mL (1 Unit), 0.5% feces (human hemoglobin (human) [16]): 75%
- Residual Hb ratio (%), 37°C 14 days, Hpt 0.775 pmol/mL (0.125 Unit), no stool (human hemoglobin (human) [16]): 22%
- Residual Hb ratio (%), 37°C 14 days, Hpt 1.55 pmol/mL (0.25 Unit), no stool (human hemoglobin (human) [16]): 32%
- Residual Hb ratio (%), 37°C 14 days, Hpt 2.325 pmol/mL (0.25 Unit), 0.5% feces (human hemoglobin (human) [16]): 16%
- Residual Hb ratio (%), 37°C 14 days, Hpt 3.1 pmol/mL (0.5 Unit), no stool (human hemoglobin (human) [16]): 48%
- Residual Hb ratio (%), 37°C 14 days, Hpt 4.65 pmol/mL (0.5 Unit), 0.5% feces (human hemoglobin (human) [16]): 34%
- Residual Hb ratio (%), 37°C 14 days, Hpt 6.2 pmol/mL (1 Unit), no stool (human hemoglobin (human) [16]): 79%
- Residual Hb ratio (%), 37°C 14 days, Hpt 9.3 pmol/mL (1 Unit), 0.5% feces (human hemoglobin (human) [16]): 78%
- residual Hb ratio, 1 Unit of Hpt, 37°C 7 days, no stool (human hemoglobin (human) [16]): > 70%
- Amount of Hpt original solution when free-Hb concentration became 0 (human hemoglobin (human) [2]): 18.6 % (vol/vol)
- Ratio to no Hpt addition (%) (human hemoglobin (human) [17]): 65%
- Ratio to no Hpt addition (%) (human hemoglobin (human) [18]): 81%
- Ratio to no Hpt addition (%) (human hemoglobin (human) [19]): 69%
- Ratio to no Hpt addition (%) (human hemoglobin (human) [20]): 89%
- Ratio to no Hpt addition (%) (human hemoglobin (human) [21]): 84%
- Ratio to no Hpt addition (%) (human hemoglobin (human) [22]): 97%
- Ratio to no Hpt addition (%) (human hemoglobin (human) [23]): 93%
- free-Hb concentration remaining (human hemoglobin (human) [11]): 58.6 µg/mL
- free-Hb concentration remaining (human hemoglobin (human) [12]): 57.8 µg/mL
- free-Hb concentration remaining (human hemoglobin (human) [13]): 57 µg/mL
- free-Hb concentration remaining (human hemoglobin (human) [14]): 55.9 µg/mL
- free-Hb concentration remaining (human hemoglobin (human) [15]): 52.4 µg/mL

Source: patent EP4675276A1
